Ab-14 heavy chain CDR variants: yeast mating affinities

Source: Li et al. 2023 (doi:10.1038/s41467-023-39022-2), MIT Lincoln Laboratory and A-Alpha Bio; data file from the FLAb repository.

Antigen: PDVDLGDISGINAS, a 14-residue peptide of the SARS-CoV-2 spike HR2 region.

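Designed CDR sequences, proposed from the first random library and measured here. Their group label is 14H_GP_HC (GP: Gaussian process model; HC: hill climbing; a sequence that several methods proposed may carry one label only). In AlphaSeq, yeast of one mating type display the scFv and yeast of the other type display the target. The frequency of each diploid, read from paired DNA barcodes, reflects how well the two displayed proteins bind. Each replicate has its own calibration line, from reference interactions of the BCL2 family. Mating was done six times.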

The variants keep the light chain, the linker and the frameworks of Ab-14 (scFv order VH, a 15-residue (Gly4Ser)3 linker, VL).
VH: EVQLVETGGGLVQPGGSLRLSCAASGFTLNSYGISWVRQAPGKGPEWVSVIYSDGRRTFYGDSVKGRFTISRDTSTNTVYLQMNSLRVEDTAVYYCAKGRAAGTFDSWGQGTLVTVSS
VL: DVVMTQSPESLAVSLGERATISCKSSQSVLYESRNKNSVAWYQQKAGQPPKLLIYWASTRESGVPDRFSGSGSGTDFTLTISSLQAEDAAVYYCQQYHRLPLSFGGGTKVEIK

The parent's heavy chain CDRs are GFTLNSYGIS, VIYSDGRRTFYGDSVK, GRAAGTFDS; each variant's own CDRs replace them letter for letter.
Values are log10 of the apparent Kd in nM; lower means stronger binding.
"n.d." marks a missing value. The strain was present, yet no cells mated with the target were sequenced in that replicate, which points to weak or no binding.
Background: pairings of all heavy chain designs with three empty control strains gave a value in 1% of cases (median 2.08, 5th percentile 0.84). Values in that range, when seen in few replicates, are hard to tell from nonspecific mating. Also given: how often the same scFv was detected with the empty control strains, with their mean in brackets.
The parent sequence was in this pool as ten entries: three were never detected, three once, and four in most replicates, with averages from 0.34 to 2.37.
The authors' rule: three or more of the six replicates give a measured affinity, fewer mean a poor binder.
Values of this round are not directly comparable with the first-round values of the same sequences.

{"CDR-H1": "GFHLNNYGIS", "CDR-H2": "VIYSDGRRTFYDDSVK", "CDR-H3": "GQLAGTFDS", "log10 Kd (nM) by replicate": "1.08 1.27 0.55 0.43 1.37 0.97", "empty controls": "0 of 18"}
{"CDR-H1": "GFTLNDYGIS", "CDR-H2": "VIYSDGRRTFYDDSVK", "CDR-H3": "GRAAGTFSS", "log10 Kd (nM) by replicate": "n.d. n.d. n.d. n.d. n.d. n.d.", "empty controls": "1 of 18 (1.08)"}
{"CDR-H1": "GFTLDSYGIS", "CDR-H2": "VIYSDGRRTFYIDSVK", "CDR-H3": "GRAAGTFSS", "log10 Kd (nM) by replicate": "n.d. n.d. n.d. n.d. n.d. n.d.", "empty controls": "1 of 18 (2.01)"}
{"CDR-H1": "GFELNDYGIS", "CDR-H2": "VIYSDGRRTCYIDSVK", "CDR-H3": "GRAAGTFDS", "log10 Kd (nM) by replicate": "n.d. 1.22 0.73 1.88 n.d. 1.26", "empty controls": "1 of 18 (3.84)"}
{"CDR-H1": "GFNLNSYGIS", "CDR-H2": "VIYSDGRRTFYIDSVK", "CDR-H3": "GRIAGTFDS", "log10 Kd (nM) by replicate": "-0.07 n.d. n.d. n.d. n.d. n.d.", "empty controls": "0 of 18"}
{"CDR-H1": "GFTLNEYGIS", "CDR-H2": "VIYSDGRRTFYGDAVK", "CDR-H3": "GRAAGTFDI", "log10 Kd (nM) by replicate": "1.49 0.59 0.57 1.32 0.46 1.19", "empty controls": "0 of 18"}
{"CDR-H1": "GFNLNSYGIS", "CDR-H2": "VIYSDGRRTFYSDSVK", "CDR-H3": "GRSAGTFDS", "log10 Kd (nM) by replicate": "n.d. 1.96 1.39 1.12 n.d. 1.78", "empty controls": "0 of 18"}
{"CDR-H1": "GFTLNEYGIS", "CDR-H2": "VIYSDGHRTFYSDSVK", "CDR-H3": "GKAAGTFDS", "log10 Kd (nM) by replicate": "0.61 0.22 0.40 -0.09 0.24 0.10", "empty controls": "1 of 18 (2.66)"}
{"CDR-H1": "GFQLNDYGIS", "CDR-H2": "VIYSDGRRTFYGDSVK", "CDR-H3": "GRVAGTFIS", "log10 Kd (nM) by replicate": "n.d. n.d. n.d. n.d. n.d. n.d.", "empty controls": "0 of 18"}
{"CDR-H1": "GFTLNEYGIS", "CDR-H2": "VIYSDGRRTFYTDSVK", "CDR-H3": "GRQAGTFDE", "log10 Kd (nM) by replicate": "0.57 0.11 0.03 0.09 0.45 0.27", "empty controls": "1 of 18 (3.01)"}
{"CDR-H1": "GFTLNEYGIS", "CDR-H2": "VIYSDGRRTFYGDSVK", "CDR-H3": "GRAAVTFGL", "log10 Kd (nM) by replicate": "n.d. n.d. n.d. n.d. n.d. n.d.", "empty controls": "0 of 18"}
{"CDR-H1": "GFTLNEYGIS", "CDR-H2": "VIYSDGRRSFYADSVK", "CDR-H3": "GHAAGTFDN", "log10 Kd (nM) by replicate": "0.71 0.77 1.11 0.88 0.85 0.71", "empty controls": "0 of 18"}
{"CDR-H1": "GFTLNSYGIS", "CDR-H2": "VIYSDGRRTFYTDSVK", "CDR-H3": "GMMAGTFDS", "log10 Kd (nM) by replicate": "1.77 0.74 0.72 0.79 0.88 1.44", "empty controls": "0 of 18"}
{"CDR-H1": "GFTLESYGIS", "CDR-H2": "VIYSDGRRTFYGDSVK", "CDR-H3": "GQGAGTFDS", "log10 Kd (nM) by replicate": "2.18 n.d. 2.02 n.d. n.d. n.d.", "empty controls": "1 of 18 (1.60)"}
{"CDR-H1": "GFTLNEYGIS", "CDR-H2": "VIYSDGRRTFYWDSVK", "CDR-H3": "GRAAVTFDK", "log10 Kd (nM) by replicate": "n.d. n.d. n.d. n.d. n.d. n.d.", "empty controls": "0 of 18"}
{"CDR-H1": "GFSLNDYGIS", "CDR-H2": "VIYSDGRRQFYGDSVK", "CDR-H3": "GRAAGTFDS", "log10 Kd (nM) by replicate": "0.63 0.36 0.34 0.18 0.37 0.34", "empty controls": "0 of 18"}
{"CDR-H1": "GFTLNEYGIS", "CDR-H2": "VIYSDGRRTFYGDSVK", "CDR-H3": "GRAAETFDE", "log10 Kd (nM) by replicate": "n.d. n.d. n.d. n.d. n.d. n.d.", "empty controls": "0 of 18"}
{"CDR-H1": "GFTLNEYGIS", "CDR-H2": "VIYSDGRRTFYGDSVK", "CDR-H3": "GRAAGTFTD", "log10 Kd (nM) by replicate": "n.d. n.d. n.d. n.d. 2.00 n.d.", "empty controls": "0 of 18"}
{"CDR-H1": "GFTLDSYGIS", "CDR-H2": "VIYSDGRRTFYIDSVK", "CDR-H3": "GRAAGTFES", "log10 Kd (nM) by replicate": "n.d. 0.71 n.d. n.d. 1.53 n.d.", "empty controls": "0 of 18"}

Again, the first 3 entries without any signal:

{"CDR-H1": "GFTLNDYGIS", "CDR-H2": "VIYSDGRRTFYDDSVK", "CDR-H3": "GRAAGTFSS", "log10 Kd (nM) by replicate": "n.d. n.d. n.d. n.d. n.d. n.d.", "empty controls": "1 of 18 (1.08)"}
{"CDR-H1": "GFTLDSYGIS", "CDR-H2": "VIYSDGRRTFYIDSVK", "CDR-H3": "GRAAGTFSS", "log10 Kd (nM) by replicate": "n.d. n.d. n.d. n.d. n.d. n.d.", "empty controls": "1 of 18 (2.01)"}
{"CDR-H1": "GFQLNDYGIS", "CDR-H2": "VIYSDGRRTFYGDSVK", "CDR-H3": "GRVAGTFIS", "log10 Kd (nM) by replicate": "n.d. n.d. n.d. n.d. n.d. n.d.", "empty controls": "0 of 18"}